Literature values as cited in US10222368B2 (priority 2012, dated 2019).

Chains of the proteins cited; added tags and fusions are not shown. Lines headed by an entry give the natural chain unless they say otherwise; changes in a name come on top.
UniProt P41145: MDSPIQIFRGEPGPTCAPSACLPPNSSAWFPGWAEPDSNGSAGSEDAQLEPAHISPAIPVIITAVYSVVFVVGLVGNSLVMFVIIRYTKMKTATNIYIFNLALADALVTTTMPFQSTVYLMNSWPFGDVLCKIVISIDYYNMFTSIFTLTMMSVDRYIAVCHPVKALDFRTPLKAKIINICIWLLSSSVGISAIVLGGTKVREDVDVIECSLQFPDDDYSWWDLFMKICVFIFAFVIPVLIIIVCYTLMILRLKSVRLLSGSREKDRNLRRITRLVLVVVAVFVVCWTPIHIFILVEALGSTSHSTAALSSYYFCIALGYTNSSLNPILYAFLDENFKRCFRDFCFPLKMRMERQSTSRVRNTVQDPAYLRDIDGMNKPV
UniProt P35372, whole entry, species assumed: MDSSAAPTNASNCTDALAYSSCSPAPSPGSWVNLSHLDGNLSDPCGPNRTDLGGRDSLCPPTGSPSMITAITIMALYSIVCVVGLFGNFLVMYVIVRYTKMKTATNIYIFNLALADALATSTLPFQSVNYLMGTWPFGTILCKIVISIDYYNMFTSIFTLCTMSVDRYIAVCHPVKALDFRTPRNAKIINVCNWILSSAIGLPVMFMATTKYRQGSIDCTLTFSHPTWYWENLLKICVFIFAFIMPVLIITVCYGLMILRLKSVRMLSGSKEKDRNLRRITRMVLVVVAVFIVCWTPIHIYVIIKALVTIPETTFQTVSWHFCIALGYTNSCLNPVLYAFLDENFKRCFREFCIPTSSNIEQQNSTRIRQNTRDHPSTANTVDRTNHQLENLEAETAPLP
UniProt P41143, whole entry: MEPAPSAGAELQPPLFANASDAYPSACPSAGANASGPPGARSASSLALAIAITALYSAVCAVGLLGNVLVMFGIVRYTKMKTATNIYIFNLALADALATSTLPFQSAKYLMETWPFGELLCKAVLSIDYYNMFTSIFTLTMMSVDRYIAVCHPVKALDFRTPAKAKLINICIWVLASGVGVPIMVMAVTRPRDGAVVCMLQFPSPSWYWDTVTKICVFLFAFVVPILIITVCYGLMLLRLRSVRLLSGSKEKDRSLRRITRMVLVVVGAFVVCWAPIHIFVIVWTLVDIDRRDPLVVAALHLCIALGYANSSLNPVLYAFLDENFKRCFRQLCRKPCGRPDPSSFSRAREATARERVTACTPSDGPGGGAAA

What was measured:
Conditions in all cases: cited from earlier work
KAPPA opioid receptor = KAPPA opioid receptor (Homo sapiens, UniProt P41145); design: key: “−” = antagonist; “+” = agonist; P = partial agonist; “NR” = not reported in the published table
MU opioid receptor = MU opioid receptor (Homo sapiens, UniProt P35372); design: key: “−” = antagonist; “+” = agonist; P = partial agonist; “NR” = not reported in the published table
DELTA opioid receptor = DELTA opioid receptor (Homo sapiens, UniProt P41143)

In the case of Naltrindole, the “Opioid receptor activity and relative potency, KAPPA” value (KAPPA opioid receptor) is given as “−”, the “Opioid receptor activity and relative potency, MU” value (MU opioid receptor) is given as “−” and the “Opioid receptor activity and relative potency, DELTA” value (DELTA opioid receptor) is given as “− − −”.
